Our source for the activation values is PubChem BioAssay AID1276 (Columbia University Molecular Screening Center, 2008).

SMILES strings stand for the structures. This is a selection; strong and weak results do not stand in their true shares. The source made the active and inactive calls.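 How the source made its calls: active means activation above a set limit, based on mean plus 3 SD of controls (cut at about 140% in these data); inconclusive means one replicate above the limit, the other below; inactive means the rest.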

The assay can be described thus: activators of APP 5'UTR luciferase reporter, primary screen, SH-SY5Y cells (AID 1276). The following applies: SH-SY5Y APP 5'UTR luciferase reporter, luminescence; at 2 µM; hits give high values; zero percent = DMSO vehicle wells. In general terms: A reporter such as luciferase makes a cellular process visible.
For the molecule `O=[N+]([O-])c1cc([N+](=O)[O-])c(Nc2ccccn2)c([N+](=O)[O-])c1`, the activation was inactive: -16.9%.
